We go through 1 compound from article PMC7248194, “Cell-Based Radiotracer Binding and Uptake Inhibition Assays: A Comparison of In Vitro Methods to Assess the Potency of Drugs That Target Monoamine Transporters” (Frontiers in Pharmacology, 2020).

Amino acid sequences for entries named in this document (tags omitted). Residues count along the entry.
UniProt P31652, whole entry: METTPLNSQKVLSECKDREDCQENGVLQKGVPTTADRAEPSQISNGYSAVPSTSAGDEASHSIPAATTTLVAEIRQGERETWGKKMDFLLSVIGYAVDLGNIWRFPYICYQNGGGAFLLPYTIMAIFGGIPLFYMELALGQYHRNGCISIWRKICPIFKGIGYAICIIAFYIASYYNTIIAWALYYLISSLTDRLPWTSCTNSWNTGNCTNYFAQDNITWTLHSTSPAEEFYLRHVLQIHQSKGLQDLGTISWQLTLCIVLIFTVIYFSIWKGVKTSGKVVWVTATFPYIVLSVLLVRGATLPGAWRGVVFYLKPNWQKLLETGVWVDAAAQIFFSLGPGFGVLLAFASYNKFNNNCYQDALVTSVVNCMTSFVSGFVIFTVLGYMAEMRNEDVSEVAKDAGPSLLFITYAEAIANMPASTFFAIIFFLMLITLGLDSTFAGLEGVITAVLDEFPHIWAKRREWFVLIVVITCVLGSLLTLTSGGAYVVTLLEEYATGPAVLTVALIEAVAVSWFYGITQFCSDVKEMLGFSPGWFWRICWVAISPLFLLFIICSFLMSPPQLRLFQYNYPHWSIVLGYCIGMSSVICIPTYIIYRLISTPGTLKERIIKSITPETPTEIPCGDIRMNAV
UniProt Q63380, 1-617: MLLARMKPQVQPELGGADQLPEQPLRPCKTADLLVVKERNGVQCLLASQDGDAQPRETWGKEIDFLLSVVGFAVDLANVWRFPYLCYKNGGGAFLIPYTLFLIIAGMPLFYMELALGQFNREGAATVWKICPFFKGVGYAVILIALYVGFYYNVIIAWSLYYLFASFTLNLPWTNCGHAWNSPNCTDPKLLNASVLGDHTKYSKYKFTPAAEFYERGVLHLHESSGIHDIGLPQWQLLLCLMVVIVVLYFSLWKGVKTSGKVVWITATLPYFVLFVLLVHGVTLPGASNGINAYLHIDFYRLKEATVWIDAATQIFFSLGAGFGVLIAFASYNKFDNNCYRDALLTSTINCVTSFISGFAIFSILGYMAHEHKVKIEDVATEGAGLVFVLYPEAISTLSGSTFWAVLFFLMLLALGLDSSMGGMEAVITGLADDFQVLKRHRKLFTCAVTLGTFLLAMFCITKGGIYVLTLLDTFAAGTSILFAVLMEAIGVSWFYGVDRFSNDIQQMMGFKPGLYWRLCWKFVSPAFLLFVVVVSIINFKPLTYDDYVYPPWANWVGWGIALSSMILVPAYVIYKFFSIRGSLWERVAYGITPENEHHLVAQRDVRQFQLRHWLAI

One assay concerns the target T1, rSERT (Rattus norvegicus, UniProt P31652).
T1 construct: gene Slc6a4; full-length, stably expressed in HEK 293 cells (Vienna, 'cell line 3')
Description: inhibition of [3H]-5-HT uptake, adherent HEK […] cells. In kind it is cell-based.

A further assay addresses T2, rNET (Rattus norvegicus, UniProt Q63380).
T2 construct: gene Slc6a2; full-length, stably expressed in HEK 293 cells (Vienna, 'cell line 3')
Description: inhibition of [3H]-MPP+ uptake, adherent HEK […] cells. The format is cell-based.

For the compound `COC(=O)[C@H]1[C@@H](OC(=O)c2ccccc2)C[C@@H]2CC[C@H]1N2C` [Cocaine], the values for the IC50 against rSERT and on rNET were 4.3 ± 2.1 µM and 2.4 ± 2 µM, respectively.
